The target in the experiment is keratin 17 (human (endogenous in A431)) (UniProt Q04695). As to the kind of experiment: proximity ligation; Duolink PLA on fixed, permeabilised parental A431 keratinocytes treated with acetone vehicle or TPA for 30 min; PLA dots per cell; KRT17 null cells compared.

Turning to “Receptor for Activated C Kinase 1 (from UniProt P63244 1-317) (natural protein)”, the fold change of PLA signal 30 min after TPA against acetone control is 2.5 fold.

The values above are taken from publication PMC11361748.
